Ab-14 heavy chain CDR variants: yeast mating affinities

Target peptide (SARS-CoV-2 spike, HR2 region): PDVDLGDISGINAS

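The starting antibody came from a phage panning campaign against this peptide. In library AAYL49, one, two or three CDR residues were substituted; doubles and triples were drawn at random. The assay is AlphaSeq: two haploid yeast populations carry antibody and antigen on their surface. The frequency of each diploid, read from paired DNA barcodes, reflects how well the two displayed proteins bind. Read counts were normalised to the haploid input and turned into Kd by a linear fit to BCL2-family pairs of known affinity, for each replicate. Each pool was mated in three replicate cultures.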

Each scFv is VH, three GGGGS repeats, VL, as in the parent Ab-14, and differs from it in the CDRs of the heavy chain only.
VH: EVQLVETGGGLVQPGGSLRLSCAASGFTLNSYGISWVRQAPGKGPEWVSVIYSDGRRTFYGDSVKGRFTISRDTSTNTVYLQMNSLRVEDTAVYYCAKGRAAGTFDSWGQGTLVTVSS
VL: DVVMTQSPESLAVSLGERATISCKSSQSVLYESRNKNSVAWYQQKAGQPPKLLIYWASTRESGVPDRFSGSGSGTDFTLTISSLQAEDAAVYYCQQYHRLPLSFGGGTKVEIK

Changes read parent residue, position, new residue, counted from the first residue of the VH shown. Values are apparent Kd, the geometric mean of the replicates that gave a signal; lower means stronger binding. "nd" marks a missing value. The strain was present, yet no cells mated with the target were sequenced in any replicate, which points to weak or no binding. Parent in this assay: reference entry 4.4 nM, copy in this library 13 µM (one replicate of three). Three control strains display no target. For library AAYL49, 15% of the pairings with them gave a signal, with a median of 11 µM and one signal in twenty below 680 nM, so weak values seen in few replicates may be background.

| changes | apparent Kd | detected |
|---|---|---|
| Y52M R100E F105M | 24 µM | 1 of 3 |
| D54V F59W S63W | nd | 0 of 3 |
| T28H G99Y G103K | nd | 0 of 3 |
| V50Y Y52V R100K | nd | 0 of 3 |
| T28W S63A S107I | 53 nM | 3 of 3 |
| S53A T58P G61L | 31 nM | 3 of 3 |
| G26Y S53A D54Q | nd | 0 of 3 |
| I34K R57M F59M | 20 µM | 2 of 3 |
| G99H A101E D106W | nd | 0 of 3 |
| I51E Y52G V64P | nd | 0 of 3 |
| S53V K65R A102T | nd | 0 of 3 |
| Y60F F105P | 1.5 µM | 1 of 3 |
| G61P K65G A102Y | nd | 0 of 3 |
| R100C A101K | 42 nM | 3 of 3 |
| R100D G103Y D106Q | 21 nM | 3 of 3 |
| T28C A101L | 42 nM | 3 of 3 |
| S31V D54G R57G | 15 µM | 2 of 3 |
| T58W D62Q | 12 µM | 1 of 3 |
| Y32F A102S D106T | 200 nM | 3 of 3 |
| F59D S63C F105S | nd | 0 of 3 |
| R100I G103A T104I | 1.6 nM | 3 of 3 |
| N30E K65I S107R | nd | 0 of 3 |
| S35K Y60C G103D | nd | 0 of 3 |
| Y52P K65F T104S | 54 µM | 3 of 3 |
| T28C L29E F59K | nd | 0 of 3 |
| G33K S53K K65T | nd | 0 of 3 |
| N30G K65C G99R | 1.0 µM | 3 of 3 |
| G26A N30K Y60V | 150 nM | 2 of 3 |
| K65F A102I F105W | 14 µM | 1 of 3 |
| G26N N30E G55N | 250 µM | 1 of 3 |
| G26Q K65W R100P | 17 µM | 2 of 3 |
| T28C S31G G99V | nd | 0 of 3 |
| F27L I51G F59K | 520 nM | 2 of 3 |
| G55N K65M F105I | nd | 0 of 3 |
| R57C G61D | nd | 0 of 3 |
| T28A D54N D62F | nd | 0 of 3 |
| S31W G33R I34V | nd | 0 of 3 |
| I51G D62Q S63A | 18 µM | 1 of 3 |
| G26S V50E I51F | nd | 0 of 3 |
| I34H V64P F105S | 46 µM | 2 of 3 |
| T28V I51R S63D | 120 µM | 1 of 3 |
| S63N V64N | 150 µM | 3 of 3 |
| S35Q T58V D106G | nd | 0 of 3 |
| G33R I34K Y52L | 39 µM | 2 of 3 |
| R57F T58I F59I | 500 µM | 1 of 3 |
| F59A K65V G103I | nd | 0 of 3 |
| I34R S35V I51Y | nd | 0 of 3 |
| L29V T58A T104F | nd | 0 of 3 |
| S31C R57M K65C | 2.2 µM | 1 of 3 |
| D54Y F59E Y60A | 15 µM | 1 of 3 |
| S31P Y32W G99S | nd | 0 of 3 |
| L29Q N30M S53F | nd | 0 of 3 |
| Y60V K65F F105N | nd | 0 of 3 |
| F27E N30M Y32C | 50 µM | 1 of 3 |
| S31C Y52P S63P | 5.2 µM | 1 of 3 |
| G33F F59Q V64Y | 67 nM | 1 of 3 |
| G26C N30C Y32I | 15 µM | 1 of 3 |

Again, the first 9 entries without any signal:

| changes | apparent Kd | detected |
|---|---|---|
| D54V F59W S63W | nd | 0 of 3 |
| T28H G99Y G103K | nd | 0 of 3 |
| V50Y Y52V R100K | nd | 0 of 3 |
| G26Y S53A D54Q | nd | 0 of 3 |
| G99H A101E D106W | nd | 0 of 3 |
| I51E Y52G V64P | nd | 0 of 3 |
| S53V K65R A102T | nd | 0 of 3 |
| G61P K65G A102Y | nd | 0 of 3 |
| F59D S63C F105S | nd | 0 of 3 |

Reference: Engelhart et al. 2022, doi:10.1038/s41597-022-01779-4. File: FLAb, binding data.